Source: ChEMBL document CHEMBL3272190, “(2-exo-3-endo)-2-Aryltropane-3-carboxylic esters, a new class of narcotic antagonists” (J Med Chem, 1978)

System: Mus musculus
Assay: Antiwrithing activity in sc dosed mouse assessed as prevention of acetylcholine-induced abdominal constriction response
Settings: Abdomen

Work on `C=CCN1CC[C@]23c4c5ccc(O)c4O[C@H]2[C@@H](O)C=C[C@H]3[C@H]1C5` [NALORPHINE] yielded an ED50 of 2.8 mg/kg.
